# Source: PubChem BioAssay AID1347076 (National Center for Advancing Translational Sciences (NCATS), 2019)
# This is a selection; strong and weak results do not stand in their true shares. Results filed as inconclusive are left out. Active and inactive are the calls of the source. Calls follow the shape of the dose curve; as a rule, active = well fitted cell-killing curve with a large enough effect; inconclusive = small, poorly fitted or top-dose-only effect, or effect the other way; inactive = flat fitted curve, though single readings scatter.
# Assay: qHTS assay for MDR1-selective chemotherapeutics: Primary screen using the drug-selected MDR subline cells KB-V1; also: nearly all actives have a fitted effect of over 60% in size
# Conditions: KB-V1 MDR cells viability, CellTiter-Glo, 72 h; at 46.1 µM (top of the series)
# From the text: A prime difficulty in effectively treating cancer is the development of cellular resistance to multiple structurally unrelated anticancer drugs, a phenomenon known as multidrug resistance (MDR). […] Numerous strategies to overcome P-gp-mediated MDR have been explored, including the design of drugs that evade recognition and efflux, and development of inhibitors to block efflux and restore drug accumulation. […] An alternative approach is to exploit resistance by identifying drugs that target MDR cells over the non-resistant parental cells from which they were selected. […] The development of MDR1-selective agents represents a new strategy for resolving multidrug resistance, as it remains a long-standing clinical challenge for cancer chemotherapy.
# Our goal is to identify compounds that selectively kill P-gp-expressing MDR cells. We will identify MDR1-selective compounds by comparing toxicity of compounds in the screening library against parental, drug-naive (KB-3-1) adenocarcinoma cells as well as their drug-selected MDR sub-line (KB-V1). The differential toxicity of compounds against these two cell lines will be used to identify MDR1-selective compounds, whose cytotoxicity is potentiated, rather than diminished, by P-gp expression. This assay will be utilized to conduct a quantitative high-throughput screen (qHTS) in collaboration with the NIH Chemical Genomics Center to identify selective agents, and probe hits arising from the screen will be validated using secondary assays and characterized through a well-established follow-up research program. This screen was run against the entire NCGC library collection of about 400,000 compounds.
# NIH Molecular Libraries Probe Production Network [MLPCN]
# NIH Chemical Genomics Center [NCGC]
# PI: Michael Gottesman, National Cancer Institute, NIH
# Briefly, 5 microL of media containing either KB-V1 cells (columns 1-2, 4-48) are dispensed into Greiner white, treated solid-bottom 1536-well assay plates (media-only control is added to column 3). Compounds are then transferred via Kalypsys pin tool equipped with 1536-pin array (10 nL slotted pins, V&P Scientific, San Diego, CA). Following addition of compound, the plates are incubated at 37 degrees C for 72 hours. CellTiter-Glo (2.5 µL/well) is then added, and the plates are read in a ViewLux reader (Perkin-Elmer, clear luminescence filter, 1 second exposure, 1x binning) following a 10 minute incubation. All cells are dispensed in DMEM phenol-red free media containing 10% FBS.
# Library plates were screened starting from the lowest and proceeding to the highest concentration. Vehicle-only plates, with DMSO being pin-transferred to columns 5-48, will be inserted uniformly at the beginning and the end of each library in order to monitor and record any shifts in the background, which can be affected by reagent dispensers or loss in enzyme activity over time. Screening data will be corrected, normalized, and concentration-effect relationships will be derived by using publicly-available NCGC, NCATS curve fitting algorithms (http://ncgc.nih.gov/pub/openhts).
# % is scaled to controls: 0 for no effect and ±100 for the full control effect.
row,Structure (SMILES),"activity change, negative = cytotoxicity"
1,CN(C)C1(CNC(=O)c2ccc(C(C)(C)C)cc2)CCCCC1,inactive: 1.94%
2,CCC(c1nnnn1C1CCCCC1)N1CCC(n2c(=O)[nH]c3ccccc32)CC1 (centres undefined),inactive: 0%
3,Cc1ccc(C(=O)NCC2(N3CCCCC3)CCCCC2)o1,inactive: -6.81%
4,Fc1ccccc1NC1CCN(Cc2ccccc2)CC1,inactive: -13.1%
5,Cc1ccc(Nc2c([N+](=O)[O-])cc([N+](=O)[O-])cc2[N+](=O)[O-])cc1,inactive: -0.717%
6,Cc1ccccc1NC1(C#N)CCN(Cc2ccccc2)CC1,inactive: 26.4%
7,CC(C)(C)n1nnnc1C(c1ccnc2ccccc12)N1CCC(n2c(=O)[nH]c3ccccc32)CC1 (centres undefined),inactive: 10.8%
8,O=C(NCC1(N2CCCCC2)CCCCC1)c1ccco1,inactive: 0%
9,CC(C)(C)c1ccc(C(=O)NCC2(N3CCOCC3)CCCCC2)cc1,inactive: -0.955%
10,CN(C)c1ccc(C(=O)NCC2(N3CCCCC3)CCCCC2)cc1,inactive: -18.8%
11,Cn1c(=O)[nH]cc(N(CCCl)CCCl)c1=O,inactive: -17.1%
12,Cc1ccccc1C(=O)NCC1(N(C)C)CCCCC1,inactive: -0.769%
13,CN1CCC(Nc2ccc(F)c(Cl)c2)CC1,inactive: 8.99%
14,CCCOc1ccc(C(=O)NCC2(N(C)C)CCCCC2)cc1,inactive: -5.81%
15,CC(C)(C)OC(=O)N1CCC(Nc2ccccc2)CC1,inactive: -26.5%
16,O=C(O)C1(Nc2ccccc2)CCN(Cc2ccccc2)CC1,inactive: 20.9%
17,ClCCN(CCCl)c1ccc(C=C2C=CC=C2)cc1,inactive: -3.82%
18,CCC(CO)(C(=O)OC1CN2CCC1CC2)c1ccccc1 (centres undefined),inactive: 19.6%
19,COc1cccc(C(c2nnnn2C2CCCC2)N2CCC(n3c(=O)[nH]c4ccccc43)CC2)c1OC (centres undefined),inactive: 0%
20,COc1cc(C(=O)NCC2(N3CCOCC3)CCCCC2)cc(OC)c1OC,inactive: -22.9%

row,Structure (SMILES),"activity change, negative = cytotoxicity"
1,COc1cccc(C(=O)N(c2cc(C)cc(C)c2)C2CCN(C(=O)OC(C)(C)C)CC2)c1,inactive: -6.16%
2,CN1CCC(Nc2ccc(Cl)cc2)CC1,inactive: 19.7%
3,O=C(NCC1(N2CCOCC2)CCCCC1)c1cc(Br)ccc1Cl,inactive: 5.54%
4,CCCCn1nnnc1C(c1ccccc1)N1CCC(n2c(=O)[nH]c3ccccc32)CC1 (centres undefined),inactive: 8.15%
5,COc1ccc(C(=O)NCC2(N3CCOCC3)CCCCC2)cc1OC,inactive: -19.2%
6,O=c1[nH]c2ccccc2n1C1CCN(C(c2ccnc3ccccc23)c2nnnn2C2CCCC2)CC1 (centres undefined),inactive: -0.613%
7,O=Cc1ccc(N(CCCl)CCCl)cc1,inactive: 6.24%
8,N/C(=N\O)c1c(N)no[n+]1[O-],inactive: 21.1%
9,CCOC(=O)N1CCC(Nc2ccc(C)cc2)CC1,inactive: -19.6%
10,COc1cccc(C(c2nnnn2C(C)(C)C)N2CCC(n3c(=O)[nH]c4ccccc43)CC2)c1OC (centres undefined),inactive: -20.6%
11,O=C(O)c1cccc(Nc2c([N+](=O)[O-])cc([N+](=O)[O-])cc2[N+](=O)[O-])c1,inactive: 12.9%
12,CC(C)(C)OC(=O)N1CCC(N(C(=O)c2ccccc2)c2ccc(Cl)cc2)CC1,inactive: -23%
13,N#Cc1ccc(C(=O)NCC2(N3CCCCC3)CCCCC2)cc1,inactive: -21.9%
14,O=C(NCC1(N2CCOCC2)CCCCC1)c1ccccc1[N+](=O)[O-],inactive: -22.1%
15,CCOC(=O)C(CC)C1=NC(C)(C)Cc2ccccc21.O=[N+]([O-])c1cc([N+](=O)[O-])c(O)c([N+](=O)[O-])c1 (centres undefined),inactive: -0.812%
16,c1ccc(CN2CCC(Nc3ccccc3)CC2)cc1,inactive: 5.75%
17,O=C(NCC1(N2CCOCC2)CCCCC1)c1ccccc1,inactive: -24.6%
18,CCCN1CCC(Nc2cc(OC)cc(OC)c2)CC1,inactive: -20.1%
19,CC(C)(C)n1nnnc1C(c1cccc2ccccc12)N1CCC(n2c(=O)[nH]c3ccccc32)CC1 (centres undefined),inactive: -16.8%
20,CC(C)(C)n1nnnc1C(c1ccccc1OC(F)(F)F)N1CCC(n2c(=O)[nH]c3ccccc32)CC1 (centres undefined),inactive: -27%

row,Structure (SMILES),"activity change, negative = cytotoxicity"
1,O=C(NCC1(N2CCCCC2)CCCCC1)c1ccc(OC(F)F)cc1,inactive: -16.2%
2,CCOc1ccc(C(=O)NCC2(N3CCOCC3)CCCCC2)cc1,inactive: -18.5%
3,O=C(NCC1(N2CCCCC2)CCCCC1)c1cccc([N+](=O)[O-])c1,inactive: 3.64%
4,CCN1CCC(Nc2ccc(Cl)cc2)CC1,inactive: 24.6%
5,O=c1[nH]c2ccccc2n1C1CCN(C(c2ccccc2OC(F)(F)F)c2nnnn2C2CCCC2)CC1 (centres undefined),inactive: 0%
6,O=C(NCC1(N2CCCCC2)CCCCC1)c1cccc(C(F)(F)F)c1,inactive: -6.93%
7,O=[N+]([O-])c1cc([N+](=O)[O-])c(NCC2CCS(=O)(=O)C2)c([N+](=O)[O-])c1 (centres undefined),inactive: -4.74%
8,CN1CCN(CCOC(=O)C(O)(c2ccccc2)c2ccccc2)CC1,inactive: -11.6%
9,COc1ccc(NC2CCN(C(=O)OC(C)(C)C)CC2)cc1,inactive: 2.45%
10,CCCCn1nnnc1C(c1cccc2ccccc12)N1CCC(n2c(=O)[nH]c3ccccc32)CC1 (centres undefined),inactive: -6.29%
11,COc1cc(C(=O)NCC2(N3CCCCC3)CCCCC2)ccc1OC(F)F,inactive: -21.9%
12,O=C(NCC1(N2CCOCC2)CCCCC1)c1cc(=O)[nH]c2ccccc12,inactive: -4.35%
13,COc1ccc(CN(CCCl)CCCl)cc1Cl,inactive: 0%
14,O=[N+]([O-])c1cc([N+](=O)[O-])c(OC2CCCCC2O)c([N+](=O)[O-])c1 (centres undefined),inactive: 22.6%
15,CN(C)c1cccc(C(=O)NCC2(N3CCCCC3)CCCCC2)c1,inactive: 6.29%
16,CCCCn1nnnc1C(c1ccnc2ccccc12)N1CCC(n2c(=O)[nH]c3ccccc32)CC1 (centres undefined),inactive: -5.77%
17,COc1cc(OC)c(C(=O)NCC2(N(C)C)CCCCC2)cc1OC,inactive: 3.82%
18,O=C(NCC1(N2CCOCC2)CCCCC1)c1cc(F)c(F)cc1Cl,inactive: 0%
19,CCC(c1nnnn1C(C)(C)C)N1CCC(n2c(=O)[nH]c3ccccc32)CC1 (centres undefined),inactive: -1.61%
